Results published in ChEMBL document CHEMBL4699451, “Discovery of BIIB068: A Selective, Potent, Reversible Bruton's Tyrosine Kinase Inhibitor as an Orally Efficacious Agent for Autoimmune Diseases” (J Med Chem, 2020).

Amino acid sequences for entries named in this document (tags omitted). A change or cut given only in a name is not applied to a line headed by its entry.
UniProt Q9BVS4: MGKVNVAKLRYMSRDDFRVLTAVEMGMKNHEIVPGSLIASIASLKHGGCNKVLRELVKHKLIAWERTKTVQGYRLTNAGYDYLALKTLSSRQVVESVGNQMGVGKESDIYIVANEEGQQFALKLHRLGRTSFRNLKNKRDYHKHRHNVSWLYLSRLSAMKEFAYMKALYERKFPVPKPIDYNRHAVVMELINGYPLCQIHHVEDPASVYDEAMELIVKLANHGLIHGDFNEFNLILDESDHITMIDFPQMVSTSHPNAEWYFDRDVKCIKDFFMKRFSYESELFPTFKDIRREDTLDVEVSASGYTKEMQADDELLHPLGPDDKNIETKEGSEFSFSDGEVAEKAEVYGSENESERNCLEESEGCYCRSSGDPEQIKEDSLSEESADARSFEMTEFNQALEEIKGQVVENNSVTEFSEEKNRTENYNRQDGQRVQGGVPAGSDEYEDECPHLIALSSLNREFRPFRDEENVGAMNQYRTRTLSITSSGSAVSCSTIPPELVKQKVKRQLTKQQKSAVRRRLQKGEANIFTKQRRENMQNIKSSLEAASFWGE
UniProt Q2M2I8: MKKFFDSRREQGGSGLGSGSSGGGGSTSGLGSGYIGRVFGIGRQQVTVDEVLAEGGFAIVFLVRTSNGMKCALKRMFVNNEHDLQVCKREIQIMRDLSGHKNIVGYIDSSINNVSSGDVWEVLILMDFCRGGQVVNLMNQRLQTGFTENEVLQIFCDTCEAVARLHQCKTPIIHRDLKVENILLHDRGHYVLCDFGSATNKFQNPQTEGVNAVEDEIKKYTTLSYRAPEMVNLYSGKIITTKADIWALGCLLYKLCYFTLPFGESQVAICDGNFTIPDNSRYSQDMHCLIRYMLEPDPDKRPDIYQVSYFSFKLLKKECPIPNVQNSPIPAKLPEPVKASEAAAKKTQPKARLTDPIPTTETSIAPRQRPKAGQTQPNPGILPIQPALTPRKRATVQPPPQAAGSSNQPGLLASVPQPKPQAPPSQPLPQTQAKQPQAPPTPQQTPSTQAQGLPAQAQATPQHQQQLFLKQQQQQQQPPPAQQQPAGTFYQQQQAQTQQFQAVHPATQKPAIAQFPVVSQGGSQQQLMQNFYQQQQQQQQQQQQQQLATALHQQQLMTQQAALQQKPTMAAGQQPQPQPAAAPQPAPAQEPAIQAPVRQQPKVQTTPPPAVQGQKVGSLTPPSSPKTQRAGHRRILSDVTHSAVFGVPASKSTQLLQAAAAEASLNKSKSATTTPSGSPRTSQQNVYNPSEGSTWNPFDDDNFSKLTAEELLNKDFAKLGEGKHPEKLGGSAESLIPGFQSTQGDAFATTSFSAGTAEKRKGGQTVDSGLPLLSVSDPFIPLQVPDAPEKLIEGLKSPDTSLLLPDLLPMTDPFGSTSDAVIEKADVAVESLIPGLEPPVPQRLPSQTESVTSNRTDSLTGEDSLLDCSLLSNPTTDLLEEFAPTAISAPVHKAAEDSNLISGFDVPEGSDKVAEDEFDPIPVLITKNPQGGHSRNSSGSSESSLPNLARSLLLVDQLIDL
UniProt Q9NSY1, whole entry, looked up: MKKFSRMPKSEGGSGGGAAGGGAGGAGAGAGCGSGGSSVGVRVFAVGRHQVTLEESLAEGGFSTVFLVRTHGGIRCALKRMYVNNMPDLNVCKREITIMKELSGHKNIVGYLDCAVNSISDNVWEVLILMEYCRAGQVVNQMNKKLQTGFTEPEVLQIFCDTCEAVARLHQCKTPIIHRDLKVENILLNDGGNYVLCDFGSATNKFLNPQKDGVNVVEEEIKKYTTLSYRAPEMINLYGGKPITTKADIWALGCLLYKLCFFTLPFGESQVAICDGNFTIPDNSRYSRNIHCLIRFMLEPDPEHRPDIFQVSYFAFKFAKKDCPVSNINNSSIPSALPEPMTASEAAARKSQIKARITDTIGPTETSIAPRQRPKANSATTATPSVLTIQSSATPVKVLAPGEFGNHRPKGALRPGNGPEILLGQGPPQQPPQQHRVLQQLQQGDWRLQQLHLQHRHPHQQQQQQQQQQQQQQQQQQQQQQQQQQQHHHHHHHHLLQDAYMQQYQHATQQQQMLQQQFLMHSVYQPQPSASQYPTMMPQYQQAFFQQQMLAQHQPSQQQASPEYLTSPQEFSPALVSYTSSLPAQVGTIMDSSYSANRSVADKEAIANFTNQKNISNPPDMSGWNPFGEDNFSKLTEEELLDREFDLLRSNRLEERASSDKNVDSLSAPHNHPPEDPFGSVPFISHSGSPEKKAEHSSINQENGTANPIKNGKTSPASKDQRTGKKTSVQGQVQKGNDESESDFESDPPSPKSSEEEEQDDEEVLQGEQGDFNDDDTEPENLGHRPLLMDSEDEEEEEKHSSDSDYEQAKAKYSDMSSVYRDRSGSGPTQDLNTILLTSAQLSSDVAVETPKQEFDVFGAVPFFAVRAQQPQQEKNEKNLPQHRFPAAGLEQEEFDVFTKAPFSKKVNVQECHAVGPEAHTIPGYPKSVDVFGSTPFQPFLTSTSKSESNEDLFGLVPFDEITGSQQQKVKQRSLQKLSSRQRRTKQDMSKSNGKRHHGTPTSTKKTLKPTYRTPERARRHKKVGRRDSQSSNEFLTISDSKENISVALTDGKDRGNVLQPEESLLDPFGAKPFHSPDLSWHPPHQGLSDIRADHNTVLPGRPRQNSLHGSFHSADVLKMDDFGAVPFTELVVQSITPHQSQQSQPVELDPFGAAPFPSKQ
UniProt O60674: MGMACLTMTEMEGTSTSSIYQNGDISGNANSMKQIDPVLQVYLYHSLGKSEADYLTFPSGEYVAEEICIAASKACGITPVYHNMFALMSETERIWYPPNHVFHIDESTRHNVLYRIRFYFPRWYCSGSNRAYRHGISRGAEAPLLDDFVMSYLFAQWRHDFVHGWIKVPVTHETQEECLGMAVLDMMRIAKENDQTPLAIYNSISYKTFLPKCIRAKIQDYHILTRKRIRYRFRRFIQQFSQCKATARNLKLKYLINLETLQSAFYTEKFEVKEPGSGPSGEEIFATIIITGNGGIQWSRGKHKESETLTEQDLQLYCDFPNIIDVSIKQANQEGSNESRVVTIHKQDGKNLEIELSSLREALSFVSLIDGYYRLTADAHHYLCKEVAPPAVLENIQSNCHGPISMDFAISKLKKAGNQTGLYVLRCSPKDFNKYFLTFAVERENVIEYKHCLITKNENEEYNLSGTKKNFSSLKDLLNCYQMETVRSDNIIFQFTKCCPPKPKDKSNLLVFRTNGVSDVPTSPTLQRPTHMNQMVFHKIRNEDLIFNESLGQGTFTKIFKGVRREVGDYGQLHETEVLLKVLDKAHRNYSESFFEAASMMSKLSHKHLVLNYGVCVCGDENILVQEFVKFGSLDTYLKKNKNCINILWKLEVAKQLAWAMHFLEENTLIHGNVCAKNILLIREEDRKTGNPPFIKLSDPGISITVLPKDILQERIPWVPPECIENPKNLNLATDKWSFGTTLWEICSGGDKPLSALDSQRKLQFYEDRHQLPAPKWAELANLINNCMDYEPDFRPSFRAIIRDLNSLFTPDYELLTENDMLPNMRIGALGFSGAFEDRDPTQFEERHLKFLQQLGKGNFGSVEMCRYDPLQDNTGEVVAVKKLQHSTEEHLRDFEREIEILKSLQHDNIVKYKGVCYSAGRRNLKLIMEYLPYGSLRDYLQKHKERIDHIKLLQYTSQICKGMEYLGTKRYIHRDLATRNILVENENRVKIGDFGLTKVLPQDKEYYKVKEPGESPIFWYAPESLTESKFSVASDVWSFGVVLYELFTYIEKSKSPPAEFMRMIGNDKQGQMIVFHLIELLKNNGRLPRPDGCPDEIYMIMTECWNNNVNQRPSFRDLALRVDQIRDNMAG
UniProt Q99755: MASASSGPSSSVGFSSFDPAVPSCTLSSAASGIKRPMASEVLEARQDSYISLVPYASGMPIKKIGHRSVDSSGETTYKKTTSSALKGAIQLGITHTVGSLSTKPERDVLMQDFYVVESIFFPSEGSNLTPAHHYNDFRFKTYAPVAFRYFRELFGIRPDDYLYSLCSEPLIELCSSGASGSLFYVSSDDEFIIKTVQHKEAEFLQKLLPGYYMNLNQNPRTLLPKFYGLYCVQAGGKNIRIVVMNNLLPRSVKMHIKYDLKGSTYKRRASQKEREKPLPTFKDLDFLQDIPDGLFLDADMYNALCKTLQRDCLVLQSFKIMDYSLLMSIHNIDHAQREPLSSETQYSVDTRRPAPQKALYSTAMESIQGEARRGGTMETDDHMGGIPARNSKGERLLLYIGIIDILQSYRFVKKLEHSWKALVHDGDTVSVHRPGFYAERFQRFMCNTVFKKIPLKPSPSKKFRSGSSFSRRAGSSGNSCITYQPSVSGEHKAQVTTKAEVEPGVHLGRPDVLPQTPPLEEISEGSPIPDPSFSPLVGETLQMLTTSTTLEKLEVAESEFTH
UniProt Q06187: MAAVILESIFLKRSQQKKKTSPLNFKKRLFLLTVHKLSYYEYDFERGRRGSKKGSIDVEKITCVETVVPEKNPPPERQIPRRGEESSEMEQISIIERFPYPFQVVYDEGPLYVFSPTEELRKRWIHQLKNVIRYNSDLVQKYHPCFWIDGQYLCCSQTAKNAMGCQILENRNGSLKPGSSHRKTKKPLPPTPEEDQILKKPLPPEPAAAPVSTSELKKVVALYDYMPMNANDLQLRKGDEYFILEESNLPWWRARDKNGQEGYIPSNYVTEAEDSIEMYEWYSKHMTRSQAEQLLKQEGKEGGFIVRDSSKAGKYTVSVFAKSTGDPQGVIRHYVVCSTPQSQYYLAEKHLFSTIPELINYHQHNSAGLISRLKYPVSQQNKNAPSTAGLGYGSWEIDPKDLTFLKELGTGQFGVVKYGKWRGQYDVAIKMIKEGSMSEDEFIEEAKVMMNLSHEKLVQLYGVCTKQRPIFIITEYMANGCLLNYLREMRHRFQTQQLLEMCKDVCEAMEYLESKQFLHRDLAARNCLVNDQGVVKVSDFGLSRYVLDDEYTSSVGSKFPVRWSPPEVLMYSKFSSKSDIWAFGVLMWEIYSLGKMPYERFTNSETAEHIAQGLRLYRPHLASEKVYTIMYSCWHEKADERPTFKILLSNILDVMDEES

Columns and labels:
[1] = target: T1, Serine/threonine-protein kinase RIO1 (Homo sapiens) (UniProt Q9BRS2); assay: Binding affinity to wild-type human full length RIOK1 (M1 to K568 residues) expressed in bacterial expression system at 1 uM by Kinomescan method relative to control
T1 sequence (whole entry): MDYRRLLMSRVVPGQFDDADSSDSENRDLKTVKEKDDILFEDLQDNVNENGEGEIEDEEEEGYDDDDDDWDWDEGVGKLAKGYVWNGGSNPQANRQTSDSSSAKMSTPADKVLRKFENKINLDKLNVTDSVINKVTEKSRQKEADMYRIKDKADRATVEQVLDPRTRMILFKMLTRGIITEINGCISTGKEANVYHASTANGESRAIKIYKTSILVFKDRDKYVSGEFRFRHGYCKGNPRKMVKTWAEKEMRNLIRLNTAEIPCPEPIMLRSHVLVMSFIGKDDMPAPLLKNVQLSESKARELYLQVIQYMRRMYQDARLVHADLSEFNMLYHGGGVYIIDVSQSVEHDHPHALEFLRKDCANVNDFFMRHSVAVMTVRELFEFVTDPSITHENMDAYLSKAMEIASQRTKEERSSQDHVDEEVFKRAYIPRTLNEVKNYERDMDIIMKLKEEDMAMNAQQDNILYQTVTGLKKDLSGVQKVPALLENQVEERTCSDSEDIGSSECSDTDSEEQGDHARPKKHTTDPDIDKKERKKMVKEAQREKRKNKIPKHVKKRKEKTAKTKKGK

[2] = target: Serine/threonine-protein kinase RIO2 (Homo sapiens, UniProt Q9BVS4); assay: Binding affinity to wild-type human partial length RIOK2 (M1 to D313 residues) expressed in mammalian expression system at 1 uM by Kinomescan method
[3] = target: AP2-associated protein kinase 1 (Homo sapiens, UniProt Q2M2I8); assay: Binding affinity to human wild-type AAK1 (G25 to L333 residues) expressed in bacterial expression system at 1 uM by Kinomescan method relative to control
[4] = target: BMP-2-inducible protein kinase (Homo sapiens, UniProt Q9NSY1); assay: Binding affinity to human wild-type BMP2K (S34 to N329 residues) expressed in bacterial expression system at 1 uM by Kinomescan method relative to control
[5] = target: T2, Cyclin-dependent kinase-like 2 (Homo sapiens) (UniProt Q92772); assay: Binding affinity to wild-type human partial length CDKL2 (M1 to D327 residues) expressed in bacterial expression system at 1 uM by Kinomescan method relative to control
T2 sequence (whole entry): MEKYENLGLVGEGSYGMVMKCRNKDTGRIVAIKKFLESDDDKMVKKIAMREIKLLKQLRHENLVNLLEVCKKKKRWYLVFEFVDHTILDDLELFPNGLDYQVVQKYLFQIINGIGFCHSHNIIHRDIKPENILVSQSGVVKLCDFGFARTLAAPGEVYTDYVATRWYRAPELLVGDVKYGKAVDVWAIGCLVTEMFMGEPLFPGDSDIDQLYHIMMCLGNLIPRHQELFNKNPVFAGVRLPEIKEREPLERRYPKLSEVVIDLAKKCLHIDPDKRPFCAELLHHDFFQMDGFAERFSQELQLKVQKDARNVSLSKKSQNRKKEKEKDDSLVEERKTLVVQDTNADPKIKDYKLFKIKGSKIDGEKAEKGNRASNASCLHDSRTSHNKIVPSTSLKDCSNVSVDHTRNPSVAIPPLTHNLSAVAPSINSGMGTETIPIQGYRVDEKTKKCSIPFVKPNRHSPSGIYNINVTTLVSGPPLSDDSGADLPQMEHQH

[6] = target: Tyrosine-protein kinase JAK2 (Homo sapiens, UniProt O60674); assay: Binding affinity to wild-type human partial length JAK2 JH1 catalytic domain (A829 to G1132 residues) expressed in mammalian expression system at 1 uM by Kinomescan method
[7] = target: Phosphatidylinositol 4-phosphate 5-kinase type-1 alpha (Homo sapiens, UniProt Q99755); assay: Binding affinity to wild-type human full length PIP5K1A (M1 to H562 residues) expressed in bacterial expression system at 1 uM by Kinomescan method relative to control
[8] = target: T3, Mitogen-activated protein kinase kinase kinase 19 (Homo sapiens) (UniProt Q56UN5); assay: Binding affinity to wild-type human partial length YSK4 (T1019 to H1328 residues) expressed in mammalian expression system at 1 uM by Kinomescan method relative to control
T3 sequence (whole entry): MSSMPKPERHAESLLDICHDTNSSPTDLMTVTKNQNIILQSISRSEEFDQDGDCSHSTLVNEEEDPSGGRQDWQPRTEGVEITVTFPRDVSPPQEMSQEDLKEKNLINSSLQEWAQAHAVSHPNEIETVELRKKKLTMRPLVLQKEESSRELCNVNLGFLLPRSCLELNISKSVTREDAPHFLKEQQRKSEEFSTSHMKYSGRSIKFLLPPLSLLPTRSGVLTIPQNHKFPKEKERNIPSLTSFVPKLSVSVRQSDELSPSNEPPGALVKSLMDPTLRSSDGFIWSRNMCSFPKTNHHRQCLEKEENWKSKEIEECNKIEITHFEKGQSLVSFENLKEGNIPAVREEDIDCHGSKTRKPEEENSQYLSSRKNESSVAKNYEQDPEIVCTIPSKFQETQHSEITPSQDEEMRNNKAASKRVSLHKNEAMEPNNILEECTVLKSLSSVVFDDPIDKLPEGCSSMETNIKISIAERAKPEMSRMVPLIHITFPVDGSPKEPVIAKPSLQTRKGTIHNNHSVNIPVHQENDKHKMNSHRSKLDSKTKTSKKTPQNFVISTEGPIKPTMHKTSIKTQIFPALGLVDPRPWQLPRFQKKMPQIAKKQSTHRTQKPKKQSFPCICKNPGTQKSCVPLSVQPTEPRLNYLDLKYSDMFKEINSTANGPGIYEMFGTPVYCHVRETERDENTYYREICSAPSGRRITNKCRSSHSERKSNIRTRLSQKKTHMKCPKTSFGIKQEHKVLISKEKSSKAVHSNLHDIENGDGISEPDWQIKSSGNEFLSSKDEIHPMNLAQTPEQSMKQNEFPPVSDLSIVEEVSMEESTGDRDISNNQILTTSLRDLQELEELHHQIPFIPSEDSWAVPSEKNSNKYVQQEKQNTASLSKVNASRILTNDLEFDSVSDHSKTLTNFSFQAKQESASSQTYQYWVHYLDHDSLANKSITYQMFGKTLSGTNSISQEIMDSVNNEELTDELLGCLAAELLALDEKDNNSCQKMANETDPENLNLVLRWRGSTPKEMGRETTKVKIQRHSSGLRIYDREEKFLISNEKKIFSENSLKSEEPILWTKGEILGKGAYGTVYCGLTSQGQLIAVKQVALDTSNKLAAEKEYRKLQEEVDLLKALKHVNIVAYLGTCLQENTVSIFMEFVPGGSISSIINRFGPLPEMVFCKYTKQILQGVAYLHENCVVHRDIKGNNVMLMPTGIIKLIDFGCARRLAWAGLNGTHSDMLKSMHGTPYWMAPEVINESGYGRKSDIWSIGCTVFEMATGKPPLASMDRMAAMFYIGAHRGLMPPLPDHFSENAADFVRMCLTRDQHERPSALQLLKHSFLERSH

[9] = target: Tyrosine-protein kinase BTK (Homo sapiens, UniProt Q06187); assay: Binding affinity to wild-type human full length BTK (M1 to S659 residues) expressed in mammalian expression system at 1 uM by Kinomescan method relative to control

Measured: Activity

Cc1cc(-c2ccnc(Nc3cnn(C)c3)n2)ccc1CNC(=O)N1CC(OC(C)C)C1
> 70%: all assays above
